{"sequences": {"note": "By UniProt entry, the sequences of proteins in these tests, tags left out. Residues count along the entry.", "UniProt O94925, 55-669 limits assumed": "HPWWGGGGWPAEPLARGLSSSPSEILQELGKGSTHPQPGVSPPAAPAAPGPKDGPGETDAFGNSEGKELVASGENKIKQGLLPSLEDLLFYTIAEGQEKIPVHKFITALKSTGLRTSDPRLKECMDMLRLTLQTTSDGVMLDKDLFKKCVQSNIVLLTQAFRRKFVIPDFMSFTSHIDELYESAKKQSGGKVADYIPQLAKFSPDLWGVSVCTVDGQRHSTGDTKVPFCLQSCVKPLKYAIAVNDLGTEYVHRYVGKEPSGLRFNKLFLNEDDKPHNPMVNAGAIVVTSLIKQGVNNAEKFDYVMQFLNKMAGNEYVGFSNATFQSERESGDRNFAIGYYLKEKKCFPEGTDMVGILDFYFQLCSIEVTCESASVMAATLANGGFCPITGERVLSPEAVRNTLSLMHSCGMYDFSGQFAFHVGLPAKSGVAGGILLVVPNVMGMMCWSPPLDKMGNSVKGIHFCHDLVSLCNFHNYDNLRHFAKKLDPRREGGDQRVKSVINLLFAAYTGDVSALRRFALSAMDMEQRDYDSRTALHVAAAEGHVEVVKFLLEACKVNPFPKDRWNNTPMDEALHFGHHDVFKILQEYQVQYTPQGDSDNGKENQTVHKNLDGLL"}, "source": "patent US8604016B2", "about": "“Heterocyclic inhibitors of glutaminase” (Calithera Biosciences Inc., priority 2011, dated 2013)", "key": {"[1]": {"tested_on": "P493-6 (myc \"on\") cells", "test": "Cell Proliferation Assay (72 hrs, Cell Titer Glo or Viacount FACS)", "type": "cell-based", "details": "P493-6, 72 h, read-out: Cell prolif P493 72h IC50", "protocol": "P493-6 (myc “on”) cells were maintained in growth media (RPMI-1640, 10% FBS, 2 mM glutamine, 100 units/ml Penicillin and 100 μg/ml streptomycin) at 37° C. with 5% CO2. For compound assay, P493-6 cells were plated in 96-well V-bottom plates on the day of compound addition in 50 μl of growth media at a cell density of 200,000 cells/ml (10,000 cells/well). Compounds were serially diluted in 100% DMSO at 200-times the final concentration. Compounds were diluted 100-fold into growth media and then 50 μl of this mixture was added to cell plates making the final concentration of DMSO 0.5%. Cells were incubated with compound for 72 hrs at 37° C. with 5% CO2 and analyzed for antiproliferative effects either by Cell Titer Glo (Promega) or FACS analysis using the Viacount (Millipore) kit on the Guava instrument."}, "[2]": {"target": "T1, recombinant form of Glutaminase 1 (GAC) (Homo sapiens, UniProt O94925)", "test": "Recombinant Enzyme Assay (GAC coupled to GDH, NADH absorbance, no preincubation)", "type": "biochemical", "protocol": "(§1) Enzymatic reaction was started with the addition of 50 μL of enzyme solution (50 mM Tris-HCl pH 8.0, 0.2 mM EDTA, 150 mM K2HPO4, 0.1 mg/ml BSA, 1 mM DTT, 10 ppm antifoam, 4 units/ml GDH, 4 mM adenosine diphosphate, and 4 nM GAC) and read in a Molecular Devices M5 plate reader at 20° C. The plate reader was configured to read absorbance (λ=340 nm) in kinetic mode for 15 minutes. Data was recorded as milli-absorbance units per minute and slopes were compared to a control compound and a DMSO-only control on the same plate. Compounds with slopes less than the DMSO control were considered inhibitors and plate variability was assessed using the control compound."}, "[3]": {"test": "Caco-2 Permeability Assay (bidirectional)", "type": "in vitro ADME", "details": "human, (Papp B→A)/(Papp A→B)", "excerpt": "Caco-2 cells are commonly used in a confluent monolayer on a cell culture insert filter. When cultured in this format and under specific conditions, the cells become differentiated and polarized such that their phenotype, morphologically and functionally resembles the enterocytes lining the small intestine. The cell monolayer provides a physical and biochemical barrier to the passage of small molecules, and is widely used across the pharmaceutical industry as an in vitro model of the human small intestinal mucosa to predict the absorption of orally administered drugs (Hidalgo et al., Gastroenterology, 1989; Artursson, J. Pharm. Sci., 1990). The correlation between the in vitro apparent permeability (P ? app) across Caco-2 monolayers and the in vivo absorption is well established (Artursson et al., Biochem. Biophys. Res. Comm., 1991).\nThe present assay was used to determine the bidirectional permeability of the compounds of the invention through Caco-2 cell monolayers. Caco-2 cells were grown in confluent monolayers where the media of both the apical (A) and basolateral (B) sides were at pH 7.4. Compounds were dosed at 1 μM in the presence of 200 μM Lucifer Yellow, on the apical side (A→B) or the basolateral side (B→A) for assessment, in duplicate.\nThe absorption potential of compounds were classified as either Low (P-app <1×10^−6 cm/s) or High (P-app >1×10^−6 cm/s)."}, "[4]": {"target": "T1, recombinant form of Glutaminase 1 (GAC)", "test": "Recombinant Enzyme Assay - Time Dependence (60 minutes enzyme/compound preincubation)", "type": "biochemical", "details": "read-out: GAC Delta N2 IC50 60 min", "protocol": "as §1, with “The enzyme/compound mix was sealed with sealing foil (USA Scientific) and allowed to incubate, with mild agitation, for 60 minutes at 20° C. Enzymatic” for “Enzymatic”, “substrate” for “enzyme”, “DTT, 20 mM L-glutamine, 2 mM NAD^+, and” for “DTT,”, “antifoam)” for “antifoam, 4 units/ml GDH, 4 mM adenosine diphosphate, and 4 nM GAC)”"}, "[5]": {"details": "no preincubation, read-out: GAC Delta N2 IC50 no preinc"}, "[6]": {"details": "read-out: GAC Delta N2 IC50 no preinc"}}}
{"smiles": "Nc1nnc(CCSCCc2nnc(NC(=O)Cc3ccccc3)s2)s1", "note": "[Compound 17, N-(5-(2-((2-(5-amino-1,3,4-thiadiazol-2-yl)ethyl)thio)ethyl)-1,3,4-thiadiazol-2-yl)-2-phenylacetamide]", "values": [{"measurement": "IC50", "setting": "[1]", "value": 4.2, "unit": "µM"}]}
{"smiles": "Cc1cccc(CC(=O)Nc2nnc(CCCCc3nnc(NC(=O)Cc4cccc(C)c4)s3)s2)c1", "note": "[Compound 248]", "values": [{"measurement": "IC50", "setting": "[2]; [5]", "value": 2.3, "unit": "µM"}]}
{"smiles": "O=C(Cc1ccccc1Cl)Nc1nnc(CCCCc2nnc(NC(=O)Cc3ccccc3Cl)s2)s1", "note": "[Compound 256]", "values": [{"measurement": "IC50", "setting": "[2]; [6]", "value": 0.11, "unit": "µM"}]}
{"smiles": "O=C(Cc1ccccc1CO)Nc1nnc(CCSCCc2nnc(NC(=O)Cc3ccccc3CO)s2)s1", "note": "[Compound 181, N,N′-(5,5′-(thiobis(ethane-2,1-diyl))bis(1,3,4-thiadiazole-5,2-diyl))bis(2-(2-(hydroxymethyl)phenyl)acetamide)]", "values": [{"measurement": "IC50", "setting": "[2]; [6]", "value": 0.33, "unit": "µM"}]}
{"smiles": "O=C(C[C@@H](O)c1ccccc1)Nc1nnc(CCSCCc2nnc(NC(=O)C[C@@H](O)c3ccccc3)s2)s1", "note": "[Compound 126]", "values": [{"measurement": "IC50", "setting": "[2]; [6]", "value": 5.8, "unit": "µM"}]}
{"smiles": "O=C(Cc1ccccc1)Nc1nnc(CCCCc2nnc(NC(=O)Cc3ccccc3)o2)o1", "note": "[Compound 637]", "values": [{"measurement": "IC50", "setting": "[2]; read-out: GAC Delta N2 IC50 no", "value": "> 20", "unit": "µM"}]}
{"smiles": "O=C(Cc1ccccc1)Nc1ccc(CCCCc2nnc(NC(=O)Cc3ccccn3)s2)nn1", "note": "[Compound 354]", "values": [{"measurement": "efflux ratio at 120 min, 1 µM", "setting": "[3]", "value": 33}]}
{"smiles": "CC(=O)OCC(=O)Nc1nnc(CCSCCc2nnc(NC(=O)Cc3ccccc3)s2)s1", "note": "[Compound 26]", "values": [{"measurement": "IC50", "setting": "[2]; [6]", "value": 5.6, "unit": "µM"}]}
{"smiles": "COc1cccc(-c2cccc(CC(=O)Nc3nnc(CCCCc4nnc(NC(=O)Cc5cccc(-c6cccc(OC)c6)c5)s4)s3)c2)c1", "note": "[Compound 328]", "values": [{"measurement": "IC50", "setting": "[2]; [5]", "value": "> 20", "unit": "µM"}]}
{"smiles": "O=C(Cc1ccccc1)Nc1nnc(CCCCc2nnc(NC(=O)Cc3ccccc3)o2)o1", "note": "[Compound 305]", "values": [{"measurement": "IC50", "setting": "[2]; [6]", "value": "> 20", "unit": "µM"}]}
{"smiles": "CCCC(=O)OC(C(=O)Nc1nnc(CCCCc2ccc(NC(=O)Cc3ccccc3)nn2)s1)c1cccc(Cl)c1", "note": "(centres unmarked) [Compound 439]", "values": [{"measurement": "IC50", "setting": "[4]", "value": 0.25, "unit": "µM"}]}
